Data: article PMC3711794 (Molecular cancer therapeutics, 2012)

Target: T1, PLK3 PBD (335–646) (Homo sapiens, UniProt Q9H4B4)
T1 sequence (Q9H4B4 335-646): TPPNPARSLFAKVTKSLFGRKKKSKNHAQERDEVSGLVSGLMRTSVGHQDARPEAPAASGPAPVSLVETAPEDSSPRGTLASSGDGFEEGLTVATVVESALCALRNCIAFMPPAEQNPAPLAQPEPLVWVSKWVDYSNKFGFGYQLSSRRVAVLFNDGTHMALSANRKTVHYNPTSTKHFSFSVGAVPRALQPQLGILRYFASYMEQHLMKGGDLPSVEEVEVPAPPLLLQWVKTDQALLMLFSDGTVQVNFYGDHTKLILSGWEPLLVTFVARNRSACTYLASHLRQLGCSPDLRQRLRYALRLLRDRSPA
Test: Fluorescence polarization competitive binding assay, PLK3 PBD

SMILES: CC(=O)N1CCC[C@H]1C(=O)N[C@@H](CC(C)C)C(=O)N[C@@H](Cc1c[nH]cn1)C(=O)N[C@@H](CO)C(=O)N[C@H](C(=O)N[C@@H](C)C(=O)O)[C@@H](C)OP(=O)(O)O [compound 5743, Ac-PLHS[pT]A]
- IC50: > 600 µM
